Drawing on PubChem BioAssay AID371 (SRMLSC, 2006), this text covers growth inhibition for one compound.

Only a part is listed here, and it is no random draw. Calls of active or inactive are those of the source.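 Rule for the calls: active = mean growth inhibition over the two runs of 50% or more; inactive = mean growth inhibition under 50%.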

The assay can be described thus: A549 NSCLC cell proliferation inhibitors – ATP luminescence, human non-small cell lung line, primary screen (AID 371).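 Note: compound exposure lasted 72 h before the ATP read; 0% = untreated cell signal and 100% = no luminescence left.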 As to conditions: at 10 µM, active compounds read high.
For the compound `CCN(CC)CC(O)COC(=O)C(O)(c1ccccc1)C1CCCCC1` (stereo unspecified), the growth inhibition was inactive: 6.69%.
